Consider five compounds from PubChem BioAssay AID602277 (University of Pittsburgh Molecular Library Screening Center, 2012).

Only a part is listed here, and it is no random draw. Activity calls are given as the source filed them.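 How the source made its calls: active means inhibition of the reporter signal at or above 50%; inactive means inhibition below 50%.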

This assay is described as follows: inhibitors of poly I:C-induced TLR3 signaling, primary screen, cell-based, poly I:C stimulus, luciferase, 10K MLSCN set (AID 602277). Particulars: HEK293-TLR3 RL24 IRF3 luciferase reporter, at 10 µM, hits give high values. (In general: In a reporter assay the amount or activity of a reporter protein is the signal.)
The inhibition is the change of the read-out against control, counted positive when it falls. Consider `O=P(Nc1nccs1)(c1ccccc1)c1ccccc1`, for which the inhibition is inactive: 20.7%. Under `Cc1nn(-c2ccccc2)c2c1P(=O)(N1CCOCC1)N(C)C(c1ccccc1)=N2` (stereo not given) stands inactive: -9.1%; under `CCOP1(=S)c2c(C)nn(CCC#N)c2N=C(c2ccccc2F)N1C` (stereo not given), inactive: -5.62%; under `O=C(COc1ccccc1)OC1CN2CCC1CC2` (stereo not given), inactive: 5.42%. As for `COP1(=S)c2c(C)nn(CCC#N)c2N=C(c2ccc(F)cc2)N1C` (stereo not given), the inhibition was inactive: 18.4%.
